Statin myotox sup: suppressors of simvastatin-induced myotoxicity in C2C12 myotubes; ATP luminescence, 48 h; scaled: DMSO 0, geranylgeraniol control 100; rescue of ATP level, % at 7.49 µM; actives 0.78% (n = 330,000); AID 602340;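 active = mean ATP rescue above about 67%, or every replicate alone reaching that limit, limit read from the data, passing the limit was not always enough; inconclusive = no clear call, values can overlap the other calls; inactive = mean under the limit and some replicate under it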;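 also: myotubes were challenged with 10 µM simvastatin during compound exposure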
Cneo AK release: Cryptococcus neoformans lysis via adenylate kinase release | C. neoformans lysis, adenylate kinase release luminescence, 4 h; normalised: neutral wells 0, clomiphene wells 100 | lysis activity, % at 15 µM | actives 0.2% (n = 360,000) | AID 651654;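 active = mean lysis activity across replicates of at least 80%, whatever share of replicates individually reach that level; inactive = mean lysis activity below 80%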
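Material: C. neoformans cells | Amount: Yeast cell density of 5 × 10^6 cells/mL | Medium: Fresh YPD growth medium | Dosing: Single dose | Times: Static 4 h at 37 °C with compound, 1 h detection | Detection: AK luminescence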
miR122 inh: inhibitors of miR-122 in Huh7 cells; Huh7 miR-122 Renilla luciferase sensor, 48 h; neutral wells = 0, positive control = 100; activation (reporter increase), % at 12.5 µM; actives 0.3% (n = 340,000); AID 602342;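 active = mean replicate activation score at least 90 and every replicate individually at or above 90; inconclusive = only one of the two criteria met; inactive = neither criterion met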;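 also: higher luciferase means less miR-122 activity so hits act as miR-122 inhibitors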
Yeast UUG start-1: modulators of start codon recognition fidelity in yeast; S. cerevisiae UUG-firefly luciferase reporter, luminescence/redox ratio; activity score, % at 18.7 µM; hit rate 0.13% among 350,000; AID 602363;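 active = replicate mean at a twofold rise or more, about +100% in these data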;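 note: firefly luciferase made from a UUG start codon reports start codon fidelity; reporter light over untreated wells divided by growth signal over untreated wells; some hits fall short of that in this replicate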
Glyco luc inh: blocks N-linked glycosylation in D54 reporter cells; D54 ERlucT glycosylation luciferase reporter, 24 h; percent of 100 nM tunicamycin response; reporter increase, % at 12.5 µM; actives 0.23% (n = 360,000);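 active = mean luciferase reporter signal, scaled so untreated is 0 and the glycosylation-blocking control 100, at or above a set limit in every replicate; inconclusive = mean reaches the limit but not every replicate does; inactive = mean below the limit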;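 also: luciferase carries N-glycosylation sites so blocking glycosylation raises the light; 0% = median of neutral control wells and 100% = median of 100 nM tunicamycin wells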
miR-27b qPCR: miR-27b effect in Huh7 as miR-122 inhibitor selectivity check; shares compounds with miR122 inh; Huh7 miR-27b levels, qRT-PCR, 48 h; relative miR-27b level (unnormalised ratio), ratio at 35 µM; 35 tested, under 10 active;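 active = compounds lowering miR-27b whose fitted half-maximal dose is at most twice their top tested dose; inconclusive = flat curve with moderate drop, or poor fit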
Yeast UUG start-2: modulators of start codon recognition fidelity in yeast; AID 652061; shares compounds with Yeast UUG start-1; activation, % at 38 µM; 540 tested, under 10 active; S. cerevisiae UUG-start firefly luciferase, luminescence, 4 h; 100% means double the DMSO signal;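 active = signal increase whose fitted curve reaches an absolute level of 40 at a concentration under 10 µM; inactive = activity opposite to the expected increase, or the rest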
Numbers without * were called inactive; i = inactive; ? = inconclusive; . = no result given; [ ] = dose if it differs, or a comment. The list is not random: actives were taken first. Their share in the collection is about 1.2%.

SMILES	Statin myotox sup	Cneo AK release	miR122 inh	Yeast UUG start-1	Glyco luc inh	Yeast UUG start-2	others
CCCCNS(=O)(=O)c1ccc2nc(-c3cccnc3)cc(C(=O)NC(C)CC)c2c1 (stereo not drawn)	-2.9	-0.7	?	-4.9	1.1	.	miR-27b qPCR=0.566
CCCCNS(=O)(=O)c1ccc2nc(-c3cccnc3)cc(C(=O)NC(C)C)c2c1	1.4	-2.3	68.8	-1.3	3.9	.
CC(C)c1ccc2[nH]c3c(c2c1)[C@@H]1CCN2C(=O)CCC[C@H](C3)[C@H]12	8.7	-0.1	-3.7	14.2	2.1	.
CCOc1cc(C)c(S(=O)(=O)NC2CCCCC2)cc1C	.	2.1	197.8*	-8.5	-0.9	.	miR-27b qPCR=0.913
C[C@H](CO)N1C[C@H](C)[C@@H](CN(C)CC2CCOCC2)Oc2ncc(-c3cccc(F)c3)cc2C1=O	11.1	.	-2.1[16.7 µM]	156.6*	.	i
COc1ccccc1-c1cnc2c(c1)C(=O)N([C@@H](C)CO)C[C@H](C)[C@@H](CN(C)C(=O)c1cccnc1)O2	2.3	2.2	-4.8[16.7 µM]	171.5*	.	i
COc1ccc(-c2cnc3c(c2)C(=O)N([C@@H](C)CO)C[C@H](C)[C@@H](CN(C)C(=O)NC2CCCC2)O3)cc1	-10.5	-4.2	2.2[16.7 µM]	139.6*	.	i
CCCNC(=O)N(C)C[C@@H]1Oc2ncc(-c3ccc(C(=O)N(C)C)cc3)cc2C(=O)N([C@@H](C)CO)C[C@H]1C	.	16.3	1.0[16.7 µM]	103.8*	.	i
COc1ccc(CN(C)C[C@H]2Oc3c(NC(=O)Nc4ccc(F)cc4)cccc3C(=O)N([C@@H](C)CO)C[C@@H]2C)cc1	-12.6	-2.3	0.2[16.7 µM]	-6.4	.	.
CN1C(=O)c2cc(NC(=O)c3ccc(F)cc3)ccc2OC[C@H]2O[C@@H](CC(=O)NCC3CC3)CC[C@H]21	-15.1	-6.7	-6.0[16.7 µM]	-13.8	.	.
COc1ccc(-c2cnc3c(c2)C(=O)N([C@@H](C)CO)C[C@@H](C)[C@@H](CN(C)C)O3)cc1	9.1	-1.1	64.0[16.7 µM]	-13.4	.	.
Cc1nc(N2CCN(S(=O)(=O)c3ccccc3C#N)CC2)c2c(-c3ccccc3)csc2n1	-99.4	-3.3	.	141.0*	-2.7	-1.6
C[C@@H]1CN([C@@H](C)CO)C(=O)c2cccc(NC(=O)C3CC3)c2O[C@H]1CN(C)Cc1ccc2c(c1)OCO2	-7.6	-0.7	16.0[16.7 µM]	9.4	.	.
Cc1cccc(N2CCN(C(=O)Cn3nc(Cc4ccncc4)c4ccccc4c3=O)CC2)c1C	7.0	-4.4	-13.1	-13.0	4.2	5.5
C/C=C/c1cnc2c(c1)C(=O)N([C@H](C)CO)C[C@H](C)[C@H](CN(C)S(=O)(=O)c1ccc(F)cc1)O2	23.3	-0.6	1.0[16.7 µM]	129.6*	.	i
C[C@@H]1CN([C@@H](C)CO)C(=O)c2cc(C#CC3CCCCC3)cnc2O[C@H]1CN(C)S(=O)(=O)c1ccc(F)cc1	?	2.3	-5.9[16.7 µM]	118.8*	.	i
C/C=C/c1cnc2c(c1)C(=O)N([C@@H](C)CO)C[C@@H](C)[C@@H](CN(C)S(=O)(=O)c1ccc(F)cc1)O2	-11.1	-1.9	1.0[16.7 µM]	75.8	.	.
C[C@@H]1CN([C@H](C)CO)C(=O)c2cc(C#CC3CCCCC3)cnc2O[C@H]1CN(C)S(=O)(=O)c1ccc(F)cc1	3.8	0.2	-5.0[16.7 µM]	-15.8	.	.
O=C(Cc1ccccn1)NCC[C@H]1CC[C@@H](NS(=O)(=O)c2ccc(Cl)cc2)[C@@H](CO)O1	-0.9	12.8	.	-8.0	.	.
COc1cccc(-c2cn(CC[C@@H]3CC[C@H](NC(=O)CC4CC4)[C@@H](CO)O3)nn2)c1	7.5	0.6	.	155.0*	.	i
O=C(Cc1ccccn1)N[C@H]1CC[C@@H](CCNS(=O)(=O)c2cccc(F)c2)O[C@H]1CO	-1.3	3.3	6.3[16.7 µM]	3.1	.	.
O=C(Cc1ccccn1)NCC[C@@H]1CC[C@H](NS(=O)(=O)c2ccc(Cl)cc2)[C@H](CO)O1	-4.7	4.5	.	103.5*	.	i
O=S(=O)(N[C@@H]1CC[C@H](CCn2cc(-c3cccnc3)nn2)O[C@@H]1CO)c1ccc(Cl)cc1	11.5	-1.2	.	102.0*	.	i
O=C(Cc1ccccn1)N[C@H]1CC[C@@H](CCNS(=O)(=O)c2cccc(F)c2)O[C@@H]1CO	0.4	52.3	27.1[16.7 µM]	243.5*	.	i
COc1cccc(-c2cn(CC[C@H]3CC[C@H](NC(=O)CC4CC4)[C@H](CO)O3)nn2)c1	1.3	-0.3	.	-2.0	.	.
COCC(=O)N(C)C[C@H]1Oc2cc(C3=CCCCC3)ccc2S(=O)(=O)N([C@H](C)CO)C[C@H]1C	-17.3	5.4	-9.3[16.7 µM]	6.2	.	.
COCc1cn(CC[C@H]2CC[C@H](NC(=O)Nc3c(C)noc3C)[C@H](CO)O2)nn1	9.3	41.0	6.6[16.7 µM]	193.8*	.	i
COCc1cn(CC[C@H]2CC[C@@H](NC(=O)Nc3c(C)noc3C)[C@H](CO)O2)nn1	-8.1	-2.3	-9.4[16.7 µM]	-4.0	.	.
O=C(NCC[C@H]1CC[C@@H](NS(=O)(=O)c2cccc(F)c2)[C@@H](CO)O1)c1cnccn1	20.9	-1.6	.	90.2	.	.
O=C(Nc1ccc(Cl)cc1)N[C@H]1CC[C@@H](CCNC(=O)c2ccccc2F)O[C@H]1CO	2.0	4.6	.	3.1	.	.

A draw from above in order of count of non-hydrogen atoms, descending:
SMILES	Statin myotox sup	Cneo AK release	miR122 inh	Yeast UUG start-1	Glyco luc inh	Yeast UUG start-2	others
C[C@@H]1CN([C@@H](C)CO)C(=O)c2cc(C#CC3CCCCC3)cnc2O[C@H]1CN(C)S(=O)(=O)c1ccc(F)cc1	?	2.3	-5.9[16.7 µM]	118.8*	.	i
O=C(NCC[C@H]1CC[C@@H](NS(=O)(=O)c2cccc(F)c2)[C@@H](CO)O1)c1cnccn1	20.9	-1.6	.	90.2	.	.
COCc1cn(CC[C@H]2CC[C@@H](NC(=O)Nc3c(C)noc3C)[C@H](CO)O2)nn1	-8.1	-2.3	-9.4[16.7 µM]	-4.0	.	.

The listing picks up with the two entries that preceded the break.
SMILES	Statin myotox sup	Cneo AK release	miR122 inh	Yeast UUG start-1	Glyco luc inh	Yeast UUG start-2	others
O=C(NCC[C@H]1CC[C@@H](NS(=O)(=O)c2cccc(F)c2)[C@@H](CO)O1)c1cnccn1	20.9	-1.6	.	90.2	.	.
O=C(Nc1ccc(Cl)cc1)N[C@H]1CC[C@@H](CCNC(=O)c2ccccc2F)O[C@H]1CO	2.0	4.6	.	3.1	.	.
O=C(Nc1ccc(Cl)cc1)N[C@H]1CC[C@H](CCNC(=O)c2ccccc2F)O[C@H]1CO	1.5	-0.7	.	91.3*	.	i
O=C(NCC[C@H]1CC[C@H](NS(=O)(=O)c2cccc(F)c2)[C@H](CO)O1)c1cnccn1	-1.1	-0.9	.	112.9*	.	i
O=C(NCC[C@@H]1CC[C@H](NC(=O)c2cnccn2)[C@@H](CO)O1)Nc1ccc(F)cc1	-6.8	-0.9	.	158.6*	.	i
C[C@H](CO)N1C[C@H](C)[C@H](CN(C)C(=O)C2CCCCC2)Oc2cc(C3=CCCCC3)ccc2S1(=O)=O	-12.0	-0.4	6.9[16.7 µM]	9.0	.	.
COCC(=O)N(C)C[C@@H]1Oc2ncc(C#Cc3ccc(F)cc3)cc2C(=O)N([C@H](C)CO)C[C@H]1C	17.6	-6.4	-2.1[16.7 µM]	9.6	.	.
COc1ccc(CNC(=O)C[C@H]2C[C@@H]3c4cc(NC(=O)CN(C)C)ccc4O[C@@H]3[C@H](CO)O2)cc1	-1.6	0.7	-0.7[16.7 µM]	-3.3	.	.
Cc1sc2nc(CN3CCOCC3)nc(N3CCC(C(N)=O)CC3)c2c1C	1.4	3.2	-0.7	285.9*	1.1	-7.5
C[C@@H]1CN([C@@H](C)CO)C(=O)c2cc(N(C)C)ccc2O[C@@H]1CN(C)S(=O)(=O)c1ccc(Cl)cc1	-1.0	-1.7	43.8[16.7 µM]	-0.7	.	.
COCCNC(=O)C[C@@H]1CC[C@H]2[C@@H](COC[C@@H](O)CN2C(=O)Nc2ccccc2OC)O1	6.0	0.7	-4.1[16.7 µM]	.	.	.

High-throughput results: PubChem, Broad Institute
